Experimental data from patent publication US20080227710A1, “Use of Conjugates of Doxorubicin with Lactosaminated Albumin” (priority 2005, published 2008).

Key:
[1] = Distribution of L-[14C]HSA and L-[14C]HSA-DOXO (radioactivity count) in HCCs, heart and intestine of rats with DENA-induced HCCs; settings: for Distribution, dpm/g/SA, Heart / Distribution, dpm/g/SA, Intestine / Distribution, dpm/g/SA, MD HCCs / Distribution, dpm/g/SA, PD HCCs / Distribution, dpm/g/SA, WD HCCs: rats killed 4 h after i.v. injection, mean ± standard error; for Distribution, dpm/g/SA, MD HCCs: moderately differentiated HCCs; for Distribution, dpm/g/SA, PD HCCs: poorly differentiated HCCs; for Distribution, dpm/g/SA, WD HCCs: well differentiated HCCs
[2] = rat, in vivo
[3] = DOXO concentrations in HCCs, heart and intestine of rats with DENA-induced HCCs; settings: rat, in vivo
Description: For each compound four rats were used.

[4] = molecular target: T1, ASGP-R (Rattus norvegicus, UniProt P02706+P08290); settings: DENA rats, cited from earlier work
T1 construct: the ability of the tumors to internalize L-HSA through the ASGP-R; host or cells: DENA-induced hepatocellular carcinomas in living rats (endogenous receptor of the tumor tissue)
T1 sequence (P02706 1-284): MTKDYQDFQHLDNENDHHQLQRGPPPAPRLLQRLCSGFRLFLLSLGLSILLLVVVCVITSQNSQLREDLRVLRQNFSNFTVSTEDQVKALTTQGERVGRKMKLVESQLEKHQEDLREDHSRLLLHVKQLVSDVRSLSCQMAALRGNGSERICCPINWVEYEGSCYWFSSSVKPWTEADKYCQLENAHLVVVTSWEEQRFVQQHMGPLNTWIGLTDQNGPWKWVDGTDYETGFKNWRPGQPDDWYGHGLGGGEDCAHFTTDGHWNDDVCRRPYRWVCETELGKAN
T1 sequence (P08290 1-301): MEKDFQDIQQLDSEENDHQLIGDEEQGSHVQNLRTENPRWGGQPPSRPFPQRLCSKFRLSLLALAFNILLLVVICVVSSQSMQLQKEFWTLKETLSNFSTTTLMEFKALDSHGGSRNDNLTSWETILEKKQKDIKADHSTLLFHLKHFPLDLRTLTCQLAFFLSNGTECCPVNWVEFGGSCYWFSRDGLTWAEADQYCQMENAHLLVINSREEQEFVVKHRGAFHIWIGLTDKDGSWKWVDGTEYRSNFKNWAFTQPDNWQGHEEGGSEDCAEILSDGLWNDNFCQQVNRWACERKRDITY

L-[^14C]HSA-DOXO
Distribution, dpm/g/SA, Heart [1]: 9.0 ± 0.8 dpm/g/SA | Distribution, dpm/g/SA, Intestine [1]: 9.8 ± 0.8 dpm/g/SA | Distribution, dpm/g/SA, MD HCCs [1]: 135.5 ± 19.3 dpm/g/SA | Distribution, dpm/g/SA, PD HCCs [1]: 124.8 ± 20.2 dpm/g/SA | Distribution, dpm/g/SA, WD HCCs [1]: 180.9 ± 27.8 dpm/g/SA | Uptake in all seven examined PD HCCs relative to heart and intestine [2]: at least seven times higher | DOXO concentration in HCCs relative to heart [3]: more than eight | DOXO concentration in HCCs relative to intestine [3]: five times higher | DOXO concentration in all forms of HCCs relative to intestine and heart [3]: 5-8 fold

L-[^14C]HSA: lactosaminated human albumin, a galactosyl terminating neoglycoprotein, labeled with [14C]sucrose; hepatotropic drug carrier
MD HCCs able to internalize L-HSA through the ASGP-R ([4]; moderately differentiated HCCs): 4 out of 5 | PD HCCs with a low capacity to take up L-HSA ([4]; poorly differentiated HCCs): 2 out of 5 | WD HCCs able to internalize L-HSA through the ASGP-R ([4]; well differentiated HCCs): all the 7 | Concentration in four out of six examined PD HCCs, not higher than in heart and intestine ([1]; four out of six PD HCCs, 4 h after i.v. injection 22.5 μg/g): 9.1±0.1 dpm/g/SA | Distribution, dpm/g/SA, Heart [1]: 8.7 ± 0.9 dpm/g/SA | Distribution, dpm/g/SA, Intestine [1]: 8.9 ± 1.5 dpm/g/SA | Distribution, dpm/g/SA, MD HCCs [1]: 85.6 ± 4.4 dpm/g/SA | Distribution, dpm/g/SA, PD HCCs [1]: 32.6 ± 14.9 dpm/g/SA | Distribution, dpm/g/SA, WD HCCs [1]: 178.3 ± 12.4 dpm/g/SA
